Earlier results, collected in US20200276139A1 (Evoke Pharma, Inc., priority 2017, published 2020).

Settings: Reglan package insert; cited from earlier work

CCN(CC)CCNC(=O)c1cc(Cl)c(N)cc1OC [metoclopramide, 4-amino-5-chloro-N-(2-(diethylamino)ethyl)-2-methoxybenzamide]
absorption and elimination kinetics: linear kinetic processes
